Measured values reported in patent US20260382623A1, “NOVEL COMPOUND FOR INHIBITING PROTEIN KINASES AND PHARMACEUTICAL COMPOSITION COMPRISING SAME” (published 2026).

Chains of the proteins cited; added tags and fusions are not shown. Residues count along the entry.
UniProt O60674, whole entry: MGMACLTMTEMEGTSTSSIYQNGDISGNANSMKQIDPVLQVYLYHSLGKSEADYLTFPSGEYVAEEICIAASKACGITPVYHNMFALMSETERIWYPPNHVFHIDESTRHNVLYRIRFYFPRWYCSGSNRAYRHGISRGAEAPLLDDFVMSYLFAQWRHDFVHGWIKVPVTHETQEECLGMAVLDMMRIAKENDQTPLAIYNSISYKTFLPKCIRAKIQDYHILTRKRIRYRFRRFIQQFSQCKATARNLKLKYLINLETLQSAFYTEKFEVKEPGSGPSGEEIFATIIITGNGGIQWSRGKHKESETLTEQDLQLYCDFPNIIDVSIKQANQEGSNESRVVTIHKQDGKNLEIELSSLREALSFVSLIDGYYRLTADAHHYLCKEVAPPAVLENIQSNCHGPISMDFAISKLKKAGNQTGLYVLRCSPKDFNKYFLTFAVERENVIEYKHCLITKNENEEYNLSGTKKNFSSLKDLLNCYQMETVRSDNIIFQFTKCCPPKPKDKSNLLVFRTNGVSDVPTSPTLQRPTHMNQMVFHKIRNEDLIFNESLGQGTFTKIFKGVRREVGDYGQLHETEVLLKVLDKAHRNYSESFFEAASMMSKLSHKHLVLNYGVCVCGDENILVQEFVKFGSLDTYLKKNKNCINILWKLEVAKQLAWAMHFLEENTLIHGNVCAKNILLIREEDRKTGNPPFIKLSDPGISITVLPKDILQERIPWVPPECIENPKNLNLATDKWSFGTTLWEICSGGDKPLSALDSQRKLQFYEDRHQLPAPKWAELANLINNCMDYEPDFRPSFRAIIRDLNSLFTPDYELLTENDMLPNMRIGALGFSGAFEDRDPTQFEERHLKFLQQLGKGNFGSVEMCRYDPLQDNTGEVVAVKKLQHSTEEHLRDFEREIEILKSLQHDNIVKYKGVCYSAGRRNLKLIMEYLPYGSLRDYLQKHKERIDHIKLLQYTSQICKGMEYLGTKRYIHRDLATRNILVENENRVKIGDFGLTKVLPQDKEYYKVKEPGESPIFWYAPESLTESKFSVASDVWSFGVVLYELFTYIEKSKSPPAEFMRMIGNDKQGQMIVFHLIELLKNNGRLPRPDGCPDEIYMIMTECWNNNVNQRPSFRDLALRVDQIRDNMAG
UniProt P09619, 33-1106 limits assumed: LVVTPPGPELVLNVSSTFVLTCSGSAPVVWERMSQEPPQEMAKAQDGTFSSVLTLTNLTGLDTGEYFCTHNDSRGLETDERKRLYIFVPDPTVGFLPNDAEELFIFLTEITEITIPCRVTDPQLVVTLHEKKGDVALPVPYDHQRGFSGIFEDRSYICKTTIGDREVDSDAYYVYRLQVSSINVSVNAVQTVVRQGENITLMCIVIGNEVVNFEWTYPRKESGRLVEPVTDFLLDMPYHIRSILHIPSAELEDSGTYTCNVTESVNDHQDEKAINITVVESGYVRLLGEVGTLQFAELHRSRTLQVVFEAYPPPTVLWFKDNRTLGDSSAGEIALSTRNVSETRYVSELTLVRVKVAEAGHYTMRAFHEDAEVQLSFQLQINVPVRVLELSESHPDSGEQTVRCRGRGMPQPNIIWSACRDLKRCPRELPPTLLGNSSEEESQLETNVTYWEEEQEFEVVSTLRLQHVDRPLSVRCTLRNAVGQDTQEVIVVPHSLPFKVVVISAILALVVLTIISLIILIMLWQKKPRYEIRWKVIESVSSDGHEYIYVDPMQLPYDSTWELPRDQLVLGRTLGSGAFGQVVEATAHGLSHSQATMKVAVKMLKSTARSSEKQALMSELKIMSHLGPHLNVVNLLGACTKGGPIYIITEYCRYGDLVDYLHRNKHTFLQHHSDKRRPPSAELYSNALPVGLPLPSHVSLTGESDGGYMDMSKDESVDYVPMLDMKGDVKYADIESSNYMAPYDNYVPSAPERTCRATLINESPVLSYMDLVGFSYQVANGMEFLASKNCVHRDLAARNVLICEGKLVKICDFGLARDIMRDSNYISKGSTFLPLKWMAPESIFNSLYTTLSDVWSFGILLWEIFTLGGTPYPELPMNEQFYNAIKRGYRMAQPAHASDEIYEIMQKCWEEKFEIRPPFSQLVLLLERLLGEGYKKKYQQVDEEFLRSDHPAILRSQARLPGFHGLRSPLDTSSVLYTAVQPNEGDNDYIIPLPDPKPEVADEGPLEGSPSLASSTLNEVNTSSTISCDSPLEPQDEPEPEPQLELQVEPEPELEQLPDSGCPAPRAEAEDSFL
UniProt P21802, 22-821 limits assumed: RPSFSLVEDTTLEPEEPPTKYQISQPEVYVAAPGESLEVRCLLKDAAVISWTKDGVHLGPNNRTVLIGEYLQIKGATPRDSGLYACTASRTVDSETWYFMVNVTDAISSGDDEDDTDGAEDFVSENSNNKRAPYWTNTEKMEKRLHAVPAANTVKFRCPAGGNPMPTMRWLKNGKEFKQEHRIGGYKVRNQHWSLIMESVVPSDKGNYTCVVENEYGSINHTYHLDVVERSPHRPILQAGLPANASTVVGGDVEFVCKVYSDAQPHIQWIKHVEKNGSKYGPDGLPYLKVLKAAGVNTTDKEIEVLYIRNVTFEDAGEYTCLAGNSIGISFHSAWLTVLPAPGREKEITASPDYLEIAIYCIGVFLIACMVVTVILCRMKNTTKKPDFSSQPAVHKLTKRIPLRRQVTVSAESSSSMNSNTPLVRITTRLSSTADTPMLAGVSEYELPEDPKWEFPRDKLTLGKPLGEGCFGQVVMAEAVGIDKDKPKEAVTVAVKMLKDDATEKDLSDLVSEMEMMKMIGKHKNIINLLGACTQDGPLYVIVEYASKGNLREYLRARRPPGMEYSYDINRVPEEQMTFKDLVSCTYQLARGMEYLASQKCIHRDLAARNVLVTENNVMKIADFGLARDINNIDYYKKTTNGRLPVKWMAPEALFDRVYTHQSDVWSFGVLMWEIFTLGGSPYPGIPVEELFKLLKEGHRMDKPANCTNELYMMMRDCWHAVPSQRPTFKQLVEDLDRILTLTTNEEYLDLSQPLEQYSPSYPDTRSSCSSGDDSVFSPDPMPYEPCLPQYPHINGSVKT
UniProt P23458, whole entry: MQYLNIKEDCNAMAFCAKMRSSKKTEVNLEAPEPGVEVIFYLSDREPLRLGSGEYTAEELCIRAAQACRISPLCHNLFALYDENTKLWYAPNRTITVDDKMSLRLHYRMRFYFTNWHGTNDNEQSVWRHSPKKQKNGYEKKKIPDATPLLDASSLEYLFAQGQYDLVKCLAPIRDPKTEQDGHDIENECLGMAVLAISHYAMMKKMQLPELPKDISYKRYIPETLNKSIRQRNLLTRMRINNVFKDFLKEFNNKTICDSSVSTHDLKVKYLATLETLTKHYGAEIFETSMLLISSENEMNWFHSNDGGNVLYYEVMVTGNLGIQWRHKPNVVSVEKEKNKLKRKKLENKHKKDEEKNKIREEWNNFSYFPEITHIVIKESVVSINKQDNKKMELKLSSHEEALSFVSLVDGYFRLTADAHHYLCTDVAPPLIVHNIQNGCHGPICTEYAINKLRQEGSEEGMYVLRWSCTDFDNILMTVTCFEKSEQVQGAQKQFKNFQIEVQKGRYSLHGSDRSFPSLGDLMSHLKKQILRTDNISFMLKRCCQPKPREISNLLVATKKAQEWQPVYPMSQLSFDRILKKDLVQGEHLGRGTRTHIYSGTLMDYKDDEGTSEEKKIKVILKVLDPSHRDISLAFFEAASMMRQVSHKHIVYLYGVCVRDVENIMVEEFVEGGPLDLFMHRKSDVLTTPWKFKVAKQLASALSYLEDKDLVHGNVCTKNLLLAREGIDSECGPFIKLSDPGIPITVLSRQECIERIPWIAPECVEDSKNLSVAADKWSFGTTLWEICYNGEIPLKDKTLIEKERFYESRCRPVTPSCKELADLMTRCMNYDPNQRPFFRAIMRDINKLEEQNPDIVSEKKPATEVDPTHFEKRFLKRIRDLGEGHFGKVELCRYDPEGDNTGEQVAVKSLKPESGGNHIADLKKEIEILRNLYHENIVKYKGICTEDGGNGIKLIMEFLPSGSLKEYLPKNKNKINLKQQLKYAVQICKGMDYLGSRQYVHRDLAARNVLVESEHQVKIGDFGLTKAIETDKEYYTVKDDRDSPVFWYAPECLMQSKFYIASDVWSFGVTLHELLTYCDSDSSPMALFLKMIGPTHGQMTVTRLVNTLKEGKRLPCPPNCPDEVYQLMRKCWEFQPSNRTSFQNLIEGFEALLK
UniProt P51957, whole entry: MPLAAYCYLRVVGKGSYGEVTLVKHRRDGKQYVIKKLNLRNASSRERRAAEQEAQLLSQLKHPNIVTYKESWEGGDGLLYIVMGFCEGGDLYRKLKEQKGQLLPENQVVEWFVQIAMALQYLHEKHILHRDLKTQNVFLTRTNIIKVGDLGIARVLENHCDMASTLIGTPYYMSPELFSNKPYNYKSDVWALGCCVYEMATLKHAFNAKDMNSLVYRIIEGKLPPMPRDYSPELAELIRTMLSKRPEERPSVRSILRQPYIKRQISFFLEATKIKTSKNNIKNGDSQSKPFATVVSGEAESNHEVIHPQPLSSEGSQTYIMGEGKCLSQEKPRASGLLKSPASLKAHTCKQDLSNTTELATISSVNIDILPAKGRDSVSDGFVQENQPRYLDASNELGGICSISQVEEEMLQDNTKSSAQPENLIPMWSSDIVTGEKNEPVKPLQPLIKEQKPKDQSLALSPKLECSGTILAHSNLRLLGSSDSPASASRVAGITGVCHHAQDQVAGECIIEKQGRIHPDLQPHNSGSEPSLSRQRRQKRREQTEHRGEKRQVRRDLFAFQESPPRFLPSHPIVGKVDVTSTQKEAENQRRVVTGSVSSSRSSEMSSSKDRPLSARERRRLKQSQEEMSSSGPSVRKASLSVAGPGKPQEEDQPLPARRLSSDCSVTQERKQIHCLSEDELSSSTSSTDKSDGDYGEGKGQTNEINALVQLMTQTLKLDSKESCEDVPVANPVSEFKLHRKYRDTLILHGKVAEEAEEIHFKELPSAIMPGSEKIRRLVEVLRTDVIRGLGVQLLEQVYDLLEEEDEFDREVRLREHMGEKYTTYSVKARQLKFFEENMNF
UniProt Q13470, whole entry: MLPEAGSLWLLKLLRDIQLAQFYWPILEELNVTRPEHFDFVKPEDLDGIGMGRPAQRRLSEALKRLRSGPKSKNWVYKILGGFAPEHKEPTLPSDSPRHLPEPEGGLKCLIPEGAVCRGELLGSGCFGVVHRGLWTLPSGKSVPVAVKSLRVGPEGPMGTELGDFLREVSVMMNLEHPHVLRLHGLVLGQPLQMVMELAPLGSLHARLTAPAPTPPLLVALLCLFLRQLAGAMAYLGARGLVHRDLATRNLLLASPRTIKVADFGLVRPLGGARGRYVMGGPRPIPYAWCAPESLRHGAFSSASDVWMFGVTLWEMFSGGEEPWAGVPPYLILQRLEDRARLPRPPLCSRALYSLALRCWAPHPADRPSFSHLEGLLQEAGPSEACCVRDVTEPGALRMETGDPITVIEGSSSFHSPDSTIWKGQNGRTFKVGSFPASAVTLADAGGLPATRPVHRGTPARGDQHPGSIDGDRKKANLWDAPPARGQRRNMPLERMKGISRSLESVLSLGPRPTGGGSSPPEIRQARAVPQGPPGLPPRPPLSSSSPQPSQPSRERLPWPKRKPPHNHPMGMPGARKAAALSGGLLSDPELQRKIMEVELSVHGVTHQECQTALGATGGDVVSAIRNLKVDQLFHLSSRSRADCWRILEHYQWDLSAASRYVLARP
UniProt Q16620, 32-822 limits assumed: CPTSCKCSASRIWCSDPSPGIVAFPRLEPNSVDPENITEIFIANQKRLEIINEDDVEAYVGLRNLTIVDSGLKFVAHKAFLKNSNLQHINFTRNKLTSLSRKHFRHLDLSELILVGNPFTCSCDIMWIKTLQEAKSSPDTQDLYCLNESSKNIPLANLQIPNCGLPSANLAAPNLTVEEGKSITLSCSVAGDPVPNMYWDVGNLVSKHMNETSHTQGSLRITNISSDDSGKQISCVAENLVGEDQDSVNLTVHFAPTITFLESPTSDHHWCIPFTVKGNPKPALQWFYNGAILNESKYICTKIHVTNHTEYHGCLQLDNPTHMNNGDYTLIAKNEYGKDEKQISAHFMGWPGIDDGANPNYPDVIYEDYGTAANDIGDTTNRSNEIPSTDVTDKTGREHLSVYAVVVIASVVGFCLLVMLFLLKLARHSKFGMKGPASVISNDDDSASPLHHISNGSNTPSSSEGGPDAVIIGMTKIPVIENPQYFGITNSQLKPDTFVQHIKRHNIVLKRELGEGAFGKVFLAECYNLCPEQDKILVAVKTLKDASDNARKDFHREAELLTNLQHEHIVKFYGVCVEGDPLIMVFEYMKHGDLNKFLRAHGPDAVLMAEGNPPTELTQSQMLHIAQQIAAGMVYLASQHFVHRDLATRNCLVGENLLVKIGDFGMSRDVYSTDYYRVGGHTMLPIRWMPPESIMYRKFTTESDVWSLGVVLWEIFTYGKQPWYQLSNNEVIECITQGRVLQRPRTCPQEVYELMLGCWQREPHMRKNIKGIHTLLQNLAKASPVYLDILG

Experiments:
DLD-1 = experiment: Cell growth inhibition, DLD-1 (CCK-8); settings: read-out: Cell growth inhibition GI50, DLD-1, 72 hours
SW620 = experiment: Cell growth inhibition, SW620 (CCK-8); settings: read-out: Cell growth inhibition GI50, SW620, 72 hours
RAF1 = RAF1 (Homo sapiens, UniProt P04049); experiment: Kinase panel inhibition, RAF1; settings: 1 μM
full kinase panel [1] = biological target: full kinase panel (Homo sapiens, UniProt O43318); experiment: Full kinase panel inhibition by Example compounds 8 and 51 at 1 μM (Tables 11 to 14; kinase named in each table line); settings: TAK1
full kinase panel [2] = biological target: full kinase panel (Homo sapiens, UniProt O60674); experiment: as above; settings: JAK2
full kinase panel [3] = biological target: full kinase panel (Homo sapiens, UniProt O95819); experiment: as above; settings: HGK/MAP4K4
full kinase panel [4] = biological target: full kinase panel (Homo sapiens, UniProt P00533); experiment: as above; settings: EGFR
full kinase panel [5] = biological target: full kinase panel (Homo sapiens, UniProt P04626); experiment: as above; settings: ERBB2/HER2
full kinase panel [6] = biological target: full kinase panel (Homo sapiens, UniProt P06241); experiment: as above; settings: FYN
full kinase panel [7] = biological target: full kinase panel (Homo sapiens, UniProt P07947); experiment: as above; settings: YES/YES1
full kinase panel [8] = biological target: full kinase panel (Homo sapiens, UniProt P08631); experiment: as above; settings: HCK
full kinase panel [9] = biological target: full kinase panel (Homo sapiens, UniProt P09619); experiment: as above; settings: PDGFRB
full kinase panel [10] = biological target: full kinase panel (Homo sapiens, UniProt P09769); experiment: as above; settings: FGR
full kinase panel [11] = biological target: full kinase panel (Homo sapiens, UniProt P10398); experiment: as above; settings: ARAF
full kinase panel [12] = biological target: full kinase panel (Homo sapiens, UniProt P21802); experiment: as above; settings: FGFR2
full kinase panel [13] = biological target: full kinase panel (Homo sapiens, UniProt P23458); experiment: as above; settings: JAK1
full kinase panel [14] = biological target: full kinase panel (Homo sapiens, UniProt P35968); experiment: as above; settings: KDR/VEGFR2
full kinase panel [15] = biological target: full kinase panel (Homo sapiens, UniProt P42684); experiment: as above; settings: ABL2/ARG
full kinase panel [16] = biological target: full kinase panel (Homo sapiens, UniProt P42685); experiment: as above; settings: FRK/PTK5
full kinase panel [17] = biological target: full kinase panel (Homo sapiens, UniProt P51451); experiment: as above; settings: BLK
full kinase panel [18] = biological target: full kinase panel (Homo sapiens, UniProt P51957); experiment: as above; settings: NEK4
full kinase panel [19] = biological target: full kinase panel (Homo sapiens, UniProt P54762); experiment: as above; settings: EPHB1
full kinase panel [20] = biological target: full kinase panel (Homo sapiens, UniProt P54764); experiment: as above; settings: EPHA4
full kinase panel [21] = biological target: full kinase panel (Homo sapiens, UniProt P57059); experiment: as above; settings: SIK1
full kinase panel [22] = biological target: full kinase panel (Homo sapiens, UniProt Q02763); experiment: as above; settings: TIE2/TEK
full kinase panel [23] = biological target: full kinase panel (Homo sapiens, UniProt Q05397); experiment: as above; settings: FAK/PTK2
full kinase panel [24] = biological target: full kinase panel (Homo sapiens, UniProt Q08345); experiment: as above; settings: DDR1
full kinase panel [25] = biological target: full kinase panel (Homo sapiens, UniProt Q12851); experiment: as above; settings: GCK/MAP4K2
full kinase panel [26] = biological target: full kinase panel (Homo sapiens, UniProt Q13163); experiment: as above; settings: MEK5
full kinase panel [27] = biological target: full kinase panel (Homo sapiens, UniProt Q13470); experiment: as above; settings: TNK1
full kinase panel [28] = biological target: full kinase panel (Homo sapiens, UniProt Q15569); experiment: as above; settings: TESK1
full kinase panel [29] = biological target: full kinase panel (Homo sapiens, UniProt Q16288); experiment: as above; settings: TRKC
full kinase panel [30] = biological target: full kinase panel (Homo sapiens, UniProt Q16539); experiment: as above; settings: P38A/MAPK14
full kinase panel [31] = biological target: full kinase panel (Homo sapiens, UniProt Q16620); experiment: as above; settings: TRKB
full kinase panel [32] = biological target: full kinase panel (Homo sapiens, UniProt Q7L7X3); experiment: as above; settings: TAOK1
full kinase panel [33] = biological target: full kinase panel (Homo sapiens, UniProt Q8IVH8); experiment: as above; settings: GLK/MAP4K3
full kinase panel [34] = biological target: full kinase panel (Homo sapiens, UniProt Q96S53); experiment: as above; settings: TESK2
full kinase panel [35] = biological target: full kinase panel (Homo sapiens, UniProt Q99759); experiment: as above; settings: MEKK3
full kinase panel [36] = biological target: full kinase panel (Homo sapiens, UniProt Q9NYL2); experiment: as above; settings: ZAK/MLTK
full kinase panel [37] = biological target: full kinase panel (Homo sapiens, UniProt Q9UF33); experiment: as above; settings: EPHA6

For `Cc1cn(-c2cc(C(=O)Nc3ccc(C)c(N4Cc5cnc(NC6CC6)nc5C5(CC5)C4=O)c3)cc(C(F)(F)F)c2)cn1`, the GI50 (DLD-1) was < 5 µM, the GI50 (SW620) was < 5 µM and the “kinase inhibited by 60% or more” value (RAF1) was “◯ (residual enzyme activity values were 40% or less, i.e., inhibited by 60% or more)”. The “kinase inhibition (residual enzyme activity)” value (full kinase panel [1]) was “◯ (residual enzyme activity values were 40% or less, i.e., inhibited by 60% or more)”, the “kinase inhibition (residual enzyme activity)” value (full kinase panel [2]) was “◯ (residual enzyme activity values were 40% or less, i.e., inhibited by 60% or more)” and the “kinase inhibition (residual enzyme activity)” value (full kinase panel [3]) was “◯ (residual enzyme activity values were 40% or less, i.e., inhibited by 60% or more)”. For the same compound, the “kinase inhibition (residual enzyme activity)” value (full kinase panel [4]) was “◯ (residual enzyme activity values were 40% or less, i.e., inhibited by 60% or more)”, the “kinase inhibition (residual enzyme activity)” value (full kinase panel [5]) was “◯ (residual enzyme activity values were 40% or less, i.e., inhibited by 60% or more)” and the “kinase inhibition (residual enzyme activity)” value (full kinase panel [6]) was “◯ (residual enzyme activity values were 40% or less, i.e., inhibited by 60% or more)”. The “kinase inhibition (residual enzyme activity)” value (full kinase panel [7]) was “◯ (residual enzyme activity values were 40% or less, i.e., inhibited by 60% or more)”, the “kinase inhibition (residual enzyme activity)” value (full kinase panel [8]) was “◯ (residual enzyme activity values were 40% or less, i.e., inhibited by 60% or more)” and the “kinase inhibition (residual enzyme activity)” value (full kinase panel [9]) was “◯ (residual enzyme activity values were 40% or less, i.e., inhibited by 60% or more)”. The “kinase inhibition (residual enzyme activity)” value (full kinase panel [10]) was “◯ (residual enzyme activity values were 40% or less, i.e., inhibited by 60% or more)”, the “kinase inhibition (residual enzyme activity)” value (full kinase panel [11]) was “◯ (residual enzyme activity values were 40% or less, i.e., inhibited by 60% or more)” and the “kinase inhibition (residual enzyme activity)” value (full kinase panel [12]) was “◯ (residual enzyme activity values were 40% or less, i.e., inhibited by 60% or more)”. The “kinase inhibition (residual enzyme activity)” value (full kinase panel [13]) was “◯ (residual enzyme activity values were 40% or less, i.e., inhibited by 60% or more)”, the “kinase inhibition (residual enzyme activity)” value (full kinase panel [14]) was “◯ (residual enzyme activity values were 40% or less, i.e., inhibited by 60% or more)” and the “kinase inhibition (residual enzyme activity)” value (full kinase panel [15]) was “◯ (residual enzyme activity values were 40% or less, i.e., inhibited by 60% or more)”. The “kinase inhibition (residual enzyme activity)” value (full kinase panel [16]) was “◯ (residual enzyme activity values were 40% or less, i.e., inhibited by 60% or more)”, the “kinase inhibition (residual enzyme activity)” value (full kinase panel [17]) was “◯ (residual enzyme activity values were 40% or less, i.e., inhibited by 60% or more)” and the “kinase inhibition (residual enzyme activity)” value (full kinase panel [18]) was “◯ (residual enzyme activity values were 40% or less, i.e., inhibited by 60% or more)”. For the same compound, the “kinase inhibition (residual enzyme activity)” value (full kinase panel [19]) was “◯ (residual enzyme activity values were 40% or less, i.e., inhibited by 60% or more)”, the “kinase inhibition (residual enzyme activity)” value (full kinase panel [20]) was “◯ (residual enzyme activity values were 40% or less, i.e., inhibited by 60% or more)” and the “kinase inhibition (residual enzyme activity)” value (full kinase panel [21]) was “◯ (residual enzyme activity values were 40% or less, i.e., inhibited by 60% or more)”. For the same compound, the “kinase inhibition (residual enzyme activity)” value (full kinase panel [22]) was “◯ (residual enzyme activity values were 40% or less, i.e., inhibited by 60% or more)”, the “kinase inhibition (residual enzyme activity)” value (full kinase panel [23]) was “◯ (residual enzyme activity values were 40% or less, i.e., inhibited by 60% or more)” and the “kinase inhibition (residual enzyme activity)” value (full kinase panel [24]) was “◯ (residual enzyme activity values were 40% or less, i.e., inhibited by 60% or more)”. The “kinase inhibition (residual enzyme activity)” value (full kinase panel [25]) was “◯ (residual enzyme activity values were 40% or less, i.e., inhibited by 60% or more)”, the “kinase inhibition (residual enzyme activity)” value (full kinase panel [26]) was “◯ (residual enzyme activity values were 40% or less, i.e., inhibited by 60% or more)” and the “kinase inhibition (residual enzyme activity)” value (full kinase panel [27]) was “◯ (residual enzyme activity values were 40% or less, i.e., inhibited by 60% or more)”. For the same compound, the “kinase inhibition (residual enzyme activity)” value (full kinase panel [28]) was “◯ (residual enzyme activity values were 40% or less, i.e., inhibited by 60% or more)”, the “kinase inhibition (residual enzyme activity)” value (full kinase panel [29]) was “◯ (residual enzyme activity values were 40% or less, i.e., inhibited by 60% or more)” and the “kinase inhibition (residual enzyme activity)” value (full kinase panel [30]) was “◯ (residual enzyme activity values were 40% or less, i.e., inhibited by 60% or more)”. For the same compound, the “kinase inhibition (residual enzyme activity)” value (full kinase panel [31]) was “◯ (residual enzyme activity values were 40% or less, i.e., inhibited by 60% or more)”, the “kinase inhibition (residual enzyme activity)” value (full kinase panel [32]) was “◯ (residual enzyme activity values were 40% or less, i.e., inhibited by 60% or more)” and the “kinase inhibition (residual enzyme activity)” value (full kinase panel [33]) was “◯ (residual enzyme activity values were 40% or less, i.e., inhibited by 60% or more)”. For the same compound, the “kinase inhibition (residual enzyme activity)” value (full kinase panel [34]) was “◯ (residual enzyme activity values were 40% or less, i.e., inhibited by 60% or more)”, the “kinase inhibition (residual enzyme activity)” value (full kinase panel [35]) was “◯ (residual enzyme activity values were 40% or less, i.e., inhibited by 60% or more)” and the “kinase inhibition (residual enzyme activity)” value (full kinase panel [36]) was “◯ (residual enzyme activity values were 40% or less, i.e., inhibited by 60% or more)”. For the same compound, the “kinase inhibition (residual enzyme activity)” value (full kinase panel [37]) was “◯ (residual enzyme activity values were 40% or less, i.e., inhibited by 60% or more)”.
